# Laboratory results: patent US11680056B2, “MK2 inhibitors and uses thereof” (Xinthera, Inc., priority 2021, dated 2023)
# Protein sequences, listed by entry. Tags and fused reporters are not part of them. Residues count along the entry.
# UniProt P49137, 46-400 limits assumed: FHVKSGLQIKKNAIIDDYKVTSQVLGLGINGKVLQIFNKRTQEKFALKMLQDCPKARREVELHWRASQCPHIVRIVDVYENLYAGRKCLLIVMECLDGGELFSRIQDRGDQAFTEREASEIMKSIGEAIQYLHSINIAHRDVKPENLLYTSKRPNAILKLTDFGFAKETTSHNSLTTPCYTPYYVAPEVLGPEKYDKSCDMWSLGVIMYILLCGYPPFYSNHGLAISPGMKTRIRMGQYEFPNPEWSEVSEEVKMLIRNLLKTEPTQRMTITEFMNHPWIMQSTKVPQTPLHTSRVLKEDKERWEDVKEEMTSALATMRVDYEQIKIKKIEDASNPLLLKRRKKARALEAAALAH
# UniProt Q16539, whole entry: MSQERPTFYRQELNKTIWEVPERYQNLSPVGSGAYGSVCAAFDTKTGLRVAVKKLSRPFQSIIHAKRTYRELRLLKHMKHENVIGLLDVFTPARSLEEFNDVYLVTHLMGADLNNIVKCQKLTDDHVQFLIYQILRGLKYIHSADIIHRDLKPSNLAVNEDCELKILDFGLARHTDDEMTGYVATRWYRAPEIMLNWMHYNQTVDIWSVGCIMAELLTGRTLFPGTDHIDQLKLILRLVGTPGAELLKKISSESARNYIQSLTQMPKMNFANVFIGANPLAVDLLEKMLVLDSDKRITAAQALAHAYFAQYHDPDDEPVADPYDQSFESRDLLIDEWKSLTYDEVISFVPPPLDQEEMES
# Target: p38a/MK2 (Homo sapiens (Human), UniProt P49137+Q16539)
# Assay: p38a/MK2 biochemical assay: activation of MK2 by p38, FITC-HSP27 peptide phosphorylation (IMAP FP)
# Conditions: 10-point 1:3 dilution, top dose 1 μM; 60 pM active p38a, 1 nM inactive MK2, 10 μM ATP, 2 h incubation
# Protocol: (§1) Expression vectors of the recombinant MK2 and PRAK kinases were constructed by cloning of the codon optimized gene sequences of MK2 (Uniprot ID P49137, amino acid fragment F46-H400), or PRAK (Uniprot ID Q81W41, amino acid fragment M1-Q471) into pGEX-4T1 (GE) for over expression of these kinases with N-terminal GST-tag. Protein expression was carried out in E. coli BL21 by growing the hosts in TB medium, induction of protein expression with 0.5 mM IPTG at approximate 0.8 OD600, and incubation of the cultures at 18° C. for 14-20 hours afterwards. The harvested cells were resuspended in […] of Lysis buffer (50 mM Tris-HCl, pH 8.0, 500 mM NaCl, 1 mM DTT, 5% glycerol, and 1 mM PMSF) per gram of wet cell mass and homogenized at 4° C. in a microfluidizer (ATS, Suzhou, China) at 14,000 psi pressure, 3 passes. The cell lysates were clarified by centrifugation and the supernatants containing the GST-fusion proteins were purified by affinity chromatography using GSH-Sepharose (GE) gravity flow columns pre-equilibrated in Buffer A (50 mM Tris-HCl, pH 8.0, 500 mM NaCl, 1 mM DTT, and 5% glycerol). […]
# (§2) This study evaluates the inhibitory potency of invention compound on p38/MK2 pathway vs p38/PRAK pathway. More specially the compound concentration (IC50) was determined that inhibited half of the maximal activation of MK2 or PRAK by p38. […] The MK2 and PRAK activity were determined by the phosphorylation level of HSP27 peptide conjugated with FITC.
# (§3) After 2 h incubation of the reaction mixture with various concentration of invention compound (200 nL), 60 μL 1×IMAP solution Mixture (Molecular Devices, Cat R8127) was added to the reaction mixture and incubated for another half hour. The signal was then read by Synergy™ Neo2 Multi-Mode Microplate Reader with filter setting (Ex/Em=485 nm/FITC FP-P pol 528 nm & FITC FP-S pol 528 nm)
# (§4) The signal was then normalized to vehicle control and fitted in Xfit to generate IC50. The selectivity of MK2 over PRAK was calculated by the formular Selectivity=IC50 of PRAK/IC50 of MK2.
row,Structure (SMILES),p38a/MK2 (1 μM) Enzyme pIC50
1,Cc1cnc(-n2ccc(C(C)(C)O)n2)c(F)c1-n1c(C)cc(OCc2ncc(F)cc2F)c(Cl)c1=O,<6.0
2,CNC(=O)C(C)(C)c1nccc(-c2nccc(-n3c(C)cc(OCc4ncc(F)cc4F)c(Cl)c3=O)c2C)n1 [60A],<7.0
3,CNC(=O)C(C)(C)c1nccc(-c2nccc(-n3c(C)cc(OCc4ncc(F)cc4F)c(Cl)c3=O)c2C)n1 [60B],7.6

# Target: p38a/PRAK (Homo sapiens (Human), UniProt Q16539)
# Assay: p38a/PRAK biochemical assay: activation of PRAK by p38, FITC-HSP27 peptide phosphorylation (IMAP FP)
# Conditions: 10-point 1:3 dilution, top dose 300 μM; 60 pM active p38a, 1 nM inactive PRAK, 10 μM ATP, 2 h incubation
# Protocol: as §1, §2, §3, §4
row,Structure (SMILES),p38a/PRAK Enzyme pIC50
1,Cc1cnc(-n2ccc(C(C)(C)O)n2)c(F)c1-n1c(C)cc(OCc2ncc(F)cc2F)c(Cl)c1=O,<3.5
2,CNC(=O)C(C)(C)c1nccc(-c2nccc(-n3c(C)cc(OCc4ncc(F)cc4F)c(Cl)c3=O)c2C)n1 [60A],<3.5
3,CNC(=O)C(C)(C)c1nccc(-c2nccc(-n3c(C)cc(OCc4ncc(F)cc4F)c(Cl)c3=O)c2C)n1 [60B],4.7
